PMC11272584 (Nature Metabolism, 2024)
Numbering of substitutions follows the chain as printed.

Assays:
[1] = molecular target: T1, GIPR E354Q (Homo sapiens, UniProt P48546, E354Q); conditions: GIPR E354Q (6.53), mean, n = 4, duplicate
T1 sequence (P48546 22-466 E354Q): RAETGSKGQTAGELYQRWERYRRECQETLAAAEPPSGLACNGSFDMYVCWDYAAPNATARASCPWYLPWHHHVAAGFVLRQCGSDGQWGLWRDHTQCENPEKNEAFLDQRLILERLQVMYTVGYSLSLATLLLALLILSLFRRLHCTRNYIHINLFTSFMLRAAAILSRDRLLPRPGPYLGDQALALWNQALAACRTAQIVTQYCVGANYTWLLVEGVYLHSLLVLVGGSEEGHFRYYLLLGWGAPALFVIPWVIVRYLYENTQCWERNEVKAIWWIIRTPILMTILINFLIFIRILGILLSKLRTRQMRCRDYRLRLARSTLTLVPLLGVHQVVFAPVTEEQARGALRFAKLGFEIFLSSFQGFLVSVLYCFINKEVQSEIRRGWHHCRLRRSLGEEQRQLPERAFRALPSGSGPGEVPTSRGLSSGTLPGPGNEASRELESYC

[2] = molecular target: T2, GIPR A207V (Homo sapiens, UniProt P48546, A207V); conditions: HEK293A, 1 µM GIP minus vehicle, n = 4, P = 0.000105
T2 sequence (P48546 22-466 A207V): T1 sequence (P48546 22-466 E354Q) with A186V, Q333E

[3] = molecular target: T3, GIPR T25R (Homo sapiens, UniProt P48546, T25R); assay: cAMP accumulation; assay type: cell-based; set-up: host or cells: HEK293
T3 sequence (P48546 22-466 T25R): T1 sequence (P48546 22-466 E354Q) with T4R, Q333E

[4] = molecular target: T4, GIPR P195R (Homo sapiens, UniProt P48546, P195R); conditions: GIPR P195R (ECL1), mean, n = 5, duplicate
T4 sequence (P48546 22-466 P195R): T1 sequence (P48546 22-466 E354Q) with P174R, Q333E

[5] = molecular target: T5, GIPR R300W (Homo sapiens, UniProt P48546, R300W); assay: cAMP accumulation; assay type: cell-based
T5 construct: host or cells: HEK293

[6] = molecular target: T6, GIPR T116R (Homo sapiens, UniProt P48546, T116R); conditions: GIPR T116R (ECD), mean, n = 5, duplicate
T6 sequence (P48546 22-466 T116R): T1 sequence (P48546 22-466 E354Q) with T95R, Q333E

## glucose-dependent insulinotropic polypeptide [GIP]
[1]; Hill slope 1.0
  logEC50 (Arrestin): -8.5
[1]; normalized to WT GIPR
  Arrestin (Emax): 98
[2]
  Mean of ΔBRET: 0.1369
[3]; HEK293, GIP(1–42) 1 pM–100 nM, 30 min 37 °C, mean of n = 4
  cAMP (Emax): 113 % of WT GIPR activity
[3]; HEK293, Hill slope 1.0, mean of n = 4
  logEC50 (cAMP): -10.2
[3]; cAMP, relative to WT
  Signalling capacity (cAMP): over 50%
[4]; Hill slope 1.0
  logEC50 (Arrestin): -9.0
[4]; normalized to WT GIPR
  Arrestin (Emax): 86
[5]; HEK293, GIP(1–42) 1 pM–100 nM, 30 min 37 °C, mean of n = 3
  cAMP (Emax): 114 % of WT GIPR activity
[5]; HEK293, Hill slope 1.0, mean of n = 3
  logEC50 (cAMP): -8.2
[6]; Hill slope 1.0
  logEC50 (Arrestin): -8.7
[6]; normalized to WT GIPR
  Arrestin (Emax): 62
